Data as given in publication PMC8693618 (Bioorganic & medicinal chemistry, 2021).
Values joined by “and” are separate entries in the source; they are usually repeats but may differ in a detail not shown here. Equal entries are not always repeated.

Sequences of proteins named here, by UniProt entry; tags and fusion partners are left off. A change or cut given only in a name is not applied to a line headed by its entry.
UniProt Q9H999: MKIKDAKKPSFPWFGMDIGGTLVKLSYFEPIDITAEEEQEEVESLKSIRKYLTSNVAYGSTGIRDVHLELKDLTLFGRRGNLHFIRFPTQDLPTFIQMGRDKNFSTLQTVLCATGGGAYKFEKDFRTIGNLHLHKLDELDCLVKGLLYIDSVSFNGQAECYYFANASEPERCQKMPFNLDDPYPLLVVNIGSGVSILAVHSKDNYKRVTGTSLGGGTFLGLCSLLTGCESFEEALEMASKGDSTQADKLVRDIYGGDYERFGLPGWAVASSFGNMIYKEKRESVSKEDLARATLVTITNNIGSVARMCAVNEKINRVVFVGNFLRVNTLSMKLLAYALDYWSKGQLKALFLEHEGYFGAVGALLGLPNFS

Molecular target: human PANK3 (Homo sapiens, UniProt Q9H999)

LipE | Structure (SMILES)
2.8 | CC(C)(C)c1ccc(NC(=O)N2CCN(c3ccc(C#N)cn3)CC2)cc1 [Compound 1, N-(4-(tert-butyl)phenyl)-4-(5-cyanopyridin-2-yl) piperazine-1-carboxamide]
3.37 | CC(C)c1ccc(NC(=O)N2CCN(c3ccc(C#N)cn3)CC2)cc1 [Compound 5, 4-(5-cyanopyridin-2-yl)-N-(4-isopropylphenyl)piperazine-1-carboxamide]
2.80 | CC(C)Cc1ccc(NC(=O)N2CCN(c3ccc(C#N)cn3)CC2)cc1 [Compound 7, N-(4-(sec-butyl)phenyl)-4-(5-cyanopyridin-2-yl) piperazine-1-carboxamide]
2.18 | CC(C)c1ccc(NC(=O)N2CCN(c3ccccn3)CC2)cc1 [Compound 35, N-(4-isopropylphenyl)-4-(pyridin-2-yl)piperazine-1-carboxamide]
2.04 | Cc1ccc(N2CCN(C(=O)Nc3ccc(C(C)C)cc3)CC2)nc1 [Compound 36, N-(4-isopropylphenyl)-4-(5-methylpyridin-2-yl) piperazine-1-carboxamide]
3.17 | CC(C)c1ccc(NC(=O)N2CCN(c3ncccc3C#N)CC2)cc1 [Compound 38, 4-(3-cyanopyridin-2-yl)-N-(4-isopropylphenyl) piperazine-1-carboxamide]
3.46 | CC(C)c1ccc(NC(=O)N2CCN(c3cc(C#N)ccn3)CC2)cc1 [Compound 39, 4-(4-cyanopyridin-2-yl)-N-(4-isopropylphenyl) piperazine-1-carboxamide]
4.49 | CC(C)c1ccc(NC(=O)N2CCN(c3ccc([N+](=O)[O-])cn3)CC2)cc1 [Compound 40, N-(4-isopropylphenyl)-4-(5-nitropyridin-2-yl)piperazine-1-carboxamide]
1.88 | CC(C)c1ccc(NC(=O)N2CCN(c3ccc(C(F)(F)F)cn3)CC2)cc1 [Compound 41, N-(4-isopropylphenyl)-4-(5-(trifluoromethyl)pyridin-2-yl)piperazine-1-carboxamide]
2.44 | CC(C)c1ccc(NC(=O)N2CCN(c3ccc(Br)cn3)CC2)cc1 [Compound 42, 4-(5-bromopyridin-2-yl)-N-(4-isopropylphenyl) piperazine-1-carboxamide]
2.60 | CC(C)c1ccc(NC(=O)N2CCN(c3ccc(Cl)cn3)CC2)cc1 [Compound 43, 4-(5-chloropyridin-2-yl)-N-(4-isopropylphenyl) piperazine-1-carboxamide]
1.46 | CC(=O)c1ccc(N2CCN(C(=O)Nc3ccc(C(C)C)cc3)CC2)cc1 [Compound 44, 4-(4-acetylphenyl)-N-(4-isopropylphenyl)piperazine-1-carboxamide]
1.39 | CC(C)c1ccc(NC(=O)N2CCN(c3ccc(F)cc3)CC2)cc1 [Compound 45, 4-(4-fluorophenyl)-N-(4-isopropylphenyl)piperazine-1-carboxamide]
0.65 | CC(C)c1ccc(NC(=O)N2CCN(c3cccc(Cl)c3)CC2)cc1 [Compound 46, 4-(3-chlorophenyl)-N-(4-isopropylphenyl)piperazine-1-carboxamide]
2.25 | CC(C)c1ccc(NC(=O)N2CCN(c3ccc(C#N)cc3)CC2)cc1 [Compound 48, 4-(4-cyanophenyl)-N-(4-isopropylphenyl)piperazine-1-carboxamide]
4.66 | CC(C)c1ccc(NC(=O)N2CCN(c3nccc(C#N)n3)CC2)cc1 [Compound 49, 4-(4-cyanopyrimidin-2-yl)-N-(4-isopropylphenyl) piperazine-1-carboxamide]
3.42 | CC(C)c1ccc(NC(=O)N2CCN(c3ncc(Br)cn3)CC2)cc1 [Compound 50, 4-(5-bromopyrimidin-2-yl)-N-(4-isopropylphenyl) piperazine-1-carboxamide]
3.07 | CC(C)c1ccc(CC(=O)N2CCN(c3nccc(Cl)n3)CC2)cc1 [Compound 51, 1-(4-(4-chloropyrimidin-2-yl)piperazin-1-yl)-2-(4-isopropylphenyl)ethan-1-one]
4.54 | CC(C)c1ccc(NC(=O)N2CCN(c3cnc(C#N)nc3)CC2)cc1 [Compound 52, 4-(2-cyanopyrimidin-5-yl)-N-(4-isopropylphenyl) piperazine-1-carboxamide]
5.34 | CC(C)c1ccc(CC(=O)N2CCN(c3cnc(C#N)nc3)CC2)cc1 [Compound 53, 5-(4-(2-(4-isopropylphenyl)acetyl)piperazin-1-yl) pyrimidine-2-carbonitrile]
5.33 | CC(C)c1ccc(NC(=O)N2CCN(c3cnc(C#N)cn3)CC2)cc1 [Compound 54, 4-(5-cyanopyrazin-2-yl)-N-(4-isopropylphenyl) piperazine-1-carboxamide]
5.05 | CC(C)c1ccc(CC(=O)N2CCN(c3cnc(Cl)cn3)CC2)cc1 [Compound 55, 1-(4-(5-chloropyrazin-2-yl)piperazin-1-yl)-2-(4-isopropylphenyl)ethan-1-one]
> 6 and 6.48 | CC(C)c1ccc(NC(=O)N2CCN(c3ccc(C#N)nn3)CC2)cc1 [Compound 56, 4-(6-cyanopyridazin-3-yl)-N-(4-isopropylphenyl) piperazine-1-carboxamide]
6.05 | CC(C)c1ccc(NC(=O)N2CCN(c3ccc(Cl)nn3)CC2)cc1 [Compound 58, 4-(6-chloropyridazin-3-yl)-N-(4-isopropylphenyl) piperazine-1-carboxamide]
5.55 | CC(C)c1ccc(OC(=O)N2CCN(c3ccc(C#N)nn3)CC2)cc1 [Compound 61, 4-isopropylphenyl 4-(6-cyanopyridazin-3-yl)piperazine-1-carboxylate]
